Drawing on ChEMBL document CHEMBL5446079, “Affinity Biochemical Literature for EUbOPEN Chemogenomic Library” (2024), this text covers IC50 for 3 compounds.

Sequences of proteins named here, by UniProt entry; tags and fusion partners are left off. A change or cut given only in a name is not applied to a line headed by its entry.
UniProt Q96LA8, whole entry: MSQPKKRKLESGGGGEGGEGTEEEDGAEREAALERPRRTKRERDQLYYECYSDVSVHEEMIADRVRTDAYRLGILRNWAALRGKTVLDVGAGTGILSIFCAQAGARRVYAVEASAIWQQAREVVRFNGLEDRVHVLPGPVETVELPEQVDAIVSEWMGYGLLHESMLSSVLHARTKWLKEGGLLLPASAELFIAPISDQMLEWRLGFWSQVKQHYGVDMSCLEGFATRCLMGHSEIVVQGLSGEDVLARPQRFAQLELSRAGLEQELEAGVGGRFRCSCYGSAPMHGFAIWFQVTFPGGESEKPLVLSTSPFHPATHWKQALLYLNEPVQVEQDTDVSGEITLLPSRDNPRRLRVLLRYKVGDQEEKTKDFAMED
UniProt Q96SB4, whole entry: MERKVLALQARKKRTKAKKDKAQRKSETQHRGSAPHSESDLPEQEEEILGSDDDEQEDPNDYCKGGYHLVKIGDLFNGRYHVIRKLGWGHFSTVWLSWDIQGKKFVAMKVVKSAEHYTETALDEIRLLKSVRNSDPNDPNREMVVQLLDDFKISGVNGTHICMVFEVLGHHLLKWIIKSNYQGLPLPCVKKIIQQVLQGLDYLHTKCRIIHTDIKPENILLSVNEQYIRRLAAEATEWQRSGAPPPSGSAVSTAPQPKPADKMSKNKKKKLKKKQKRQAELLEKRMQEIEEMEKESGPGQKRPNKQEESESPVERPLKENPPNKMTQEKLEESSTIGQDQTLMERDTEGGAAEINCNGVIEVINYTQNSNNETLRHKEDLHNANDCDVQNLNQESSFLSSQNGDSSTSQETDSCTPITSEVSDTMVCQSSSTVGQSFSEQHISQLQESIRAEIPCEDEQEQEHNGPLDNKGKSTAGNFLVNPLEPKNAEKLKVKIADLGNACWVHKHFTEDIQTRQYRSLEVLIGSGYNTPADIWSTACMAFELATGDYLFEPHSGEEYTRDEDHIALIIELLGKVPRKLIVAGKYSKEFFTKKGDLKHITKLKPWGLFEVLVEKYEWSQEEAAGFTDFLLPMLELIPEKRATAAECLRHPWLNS
UniProt P78362, whole entry: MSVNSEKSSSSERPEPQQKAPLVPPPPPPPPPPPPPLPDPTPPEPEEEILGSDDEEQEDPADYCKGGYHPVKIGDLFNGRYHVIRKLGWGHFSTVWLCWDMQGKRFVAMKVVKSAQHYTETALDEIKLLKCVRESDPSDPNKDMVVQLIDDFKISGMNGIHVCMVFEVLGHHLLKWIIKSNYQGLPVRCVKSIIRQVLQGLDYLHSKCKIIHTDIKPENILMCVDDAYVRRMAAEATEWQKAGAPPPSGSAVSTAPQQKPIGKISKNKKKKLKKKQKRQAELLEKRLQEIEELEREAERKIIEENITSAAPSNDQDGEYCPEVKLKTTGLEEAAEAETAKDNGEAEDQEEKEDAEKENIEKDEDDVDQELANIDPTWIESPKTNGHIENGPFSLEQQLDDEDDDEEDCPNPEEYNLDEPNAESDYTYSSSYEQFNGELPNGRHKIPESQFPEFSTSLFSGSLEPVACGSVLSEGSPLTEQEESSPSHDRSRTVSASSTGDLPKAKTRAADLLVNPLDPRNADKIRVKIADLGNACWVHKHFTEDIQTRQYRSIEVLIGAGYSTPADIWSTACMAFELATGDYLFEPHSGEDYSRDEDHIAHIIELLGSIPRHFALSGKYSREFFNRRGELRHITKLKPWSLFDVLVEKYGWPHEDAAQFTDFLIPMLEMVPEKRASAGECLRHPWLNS
UniProt P48730: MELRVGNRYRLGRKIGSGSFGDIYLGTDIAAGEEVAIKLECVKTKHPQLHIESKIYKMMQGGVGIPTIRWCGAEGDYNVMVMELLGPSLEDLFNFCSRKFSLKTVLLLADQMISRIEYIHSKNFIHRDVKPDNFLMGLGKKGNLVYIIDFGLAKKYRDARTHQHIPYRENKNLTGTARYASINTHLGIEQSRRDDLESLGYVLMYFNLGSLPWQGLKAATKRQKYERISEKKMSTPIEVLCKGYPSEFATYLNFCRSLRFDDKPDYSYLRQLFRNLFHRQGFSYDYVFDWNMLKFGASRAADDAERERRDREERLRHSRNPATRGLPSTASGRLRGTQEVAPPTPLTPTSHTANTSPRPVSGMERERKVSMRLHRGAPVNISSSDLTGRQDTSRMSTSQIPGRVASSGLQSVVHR
UniProt P49674: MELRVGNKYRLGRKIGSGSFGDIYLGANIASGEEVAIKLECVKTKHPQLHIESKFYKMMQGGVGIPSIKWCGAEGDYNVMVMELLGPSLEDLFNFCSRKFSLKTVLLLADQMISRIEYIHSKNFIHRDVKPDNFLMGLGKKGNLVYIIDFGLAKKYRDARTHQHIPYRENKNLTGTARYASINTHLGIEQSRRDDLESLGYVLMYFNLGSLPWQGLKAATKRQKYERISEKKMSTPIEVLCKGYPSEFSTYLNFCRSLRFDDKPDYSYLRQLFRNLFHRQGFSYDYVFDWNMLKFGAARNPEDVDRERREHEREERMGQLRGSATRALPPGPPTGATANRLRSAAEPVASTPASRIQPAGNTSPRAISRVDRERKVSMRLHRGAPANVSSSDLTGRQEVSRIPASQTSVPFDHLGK

What is called IC50 is the concentration that gives 50% inhibition. Higher therefore signals weaker potency.

The target in test [1] is Protein arginine N-methyltransferase 6 (Homo sapiens, UniProt Q96LA8).
In the next test the target is SRSF protein kinase 1 (Homo sapiens, UniProt Q96SB4).
The target in a further test is SRSF protein kinase 2 (Homo sapiens, UniProt P78362).
In test [2] the target is Casein kinase I isoform delta (Homo sapiens, UniProt P48730).
The target in test [3] is Casein kinase I isoform epsilon (Homo sapiens, UniProt P49674).

Where only a bound is given, the exact number is not on record here.

Compound `Cc1cc(C)cc([C@H]2c3cc(C)ccc3NC(=O)CN2C(=O)c2ccc(Br)s2)c1` returned an IC50 in test [1] greater than 50000 nM.
In the case of `CN(c1ncccc1CNc1ccnc(-c2nc3c(F)c(Cl)ccc3[nH]2)n1)S(C)(=O)=O`, the IC50 was determined as 2.7 nM on SRSF protein kinase 1 and 81 nM at SRSF protein kinase 2.
Take `CN1Cc2nccc(-c3cn(C)nc3-c3ccc(F)cc3)c2C1=O`: the IC50 in test [2] stood at 8 nM; in test [3] it was 36 nM.
